Measured values from paper PMC8776063, “Aurora Kinase A Is Involved in Controlling the Localization of Aquaporin-2 in Renal Principal Cells” (International Journal of Molecular Sciences, 2022).

By UniProt entry, the sequences of proteins in these tests, tags left out. Residues count along the entry.
UniProt P68400, 1-337: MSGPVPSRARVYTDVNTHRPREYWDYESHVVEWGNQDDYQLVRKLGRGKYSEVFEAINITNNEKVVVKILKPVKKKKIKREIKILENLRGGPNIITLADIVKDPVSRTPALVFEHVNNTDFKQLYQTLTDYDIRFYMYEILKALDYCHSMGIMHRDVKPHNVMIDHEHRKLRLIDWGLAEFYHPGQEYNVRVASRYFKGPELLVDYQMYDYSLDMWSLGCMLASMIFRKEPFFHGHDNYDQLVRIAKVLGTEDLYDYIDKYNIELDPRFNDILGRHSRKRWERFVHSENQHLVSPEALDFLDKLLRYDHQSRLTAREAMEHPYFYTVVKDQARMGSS
UniProt P45983, 1-364: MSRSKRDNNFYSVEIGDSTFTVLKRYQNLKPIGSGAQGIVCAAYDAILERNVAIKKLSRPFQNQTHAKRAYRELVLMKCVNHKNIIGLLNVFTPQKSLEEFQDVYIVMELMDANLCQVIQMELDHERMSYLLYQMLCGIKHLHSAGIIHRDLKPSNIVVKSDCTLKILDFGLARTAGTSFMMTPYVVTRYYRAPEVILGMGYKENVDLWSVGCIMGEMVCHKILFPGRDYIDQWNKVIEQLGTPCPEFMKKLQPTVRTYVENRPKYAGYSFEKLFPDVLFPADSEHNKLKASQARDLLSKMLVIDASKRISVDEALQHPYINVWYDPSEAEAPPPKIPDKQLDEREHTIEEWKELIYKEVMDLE
UniProt P15056, 448-723: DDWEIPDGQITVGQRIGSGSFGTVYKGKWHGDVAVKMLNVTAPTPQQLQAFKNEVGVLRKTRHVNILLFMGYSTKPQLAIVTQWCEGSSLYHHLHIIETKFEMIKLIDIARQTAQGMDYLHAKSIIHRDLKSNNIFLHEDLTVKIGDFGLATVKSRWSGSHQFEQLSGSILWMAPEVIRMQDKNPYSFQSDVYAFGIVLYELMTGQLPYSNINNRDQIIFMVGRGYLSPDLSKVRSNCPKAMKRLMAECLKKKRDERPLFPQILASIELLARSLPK
UniProt Q9P289, 1-300: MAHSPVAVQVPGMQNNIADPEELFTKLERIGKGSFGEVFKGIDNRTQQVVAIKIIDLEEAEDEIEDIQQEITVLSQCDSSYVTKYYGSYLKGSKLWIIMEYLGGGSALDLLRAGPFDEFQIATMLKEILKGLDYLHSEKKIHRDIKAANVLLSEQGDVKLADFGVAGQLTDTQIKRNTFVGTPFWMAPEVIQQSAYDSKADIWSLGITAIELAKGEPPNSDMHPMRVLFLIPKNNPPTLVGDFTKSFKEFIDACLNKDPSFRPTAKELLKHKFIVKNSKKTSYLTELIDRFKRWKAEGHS
UniProt P11309, whole entry: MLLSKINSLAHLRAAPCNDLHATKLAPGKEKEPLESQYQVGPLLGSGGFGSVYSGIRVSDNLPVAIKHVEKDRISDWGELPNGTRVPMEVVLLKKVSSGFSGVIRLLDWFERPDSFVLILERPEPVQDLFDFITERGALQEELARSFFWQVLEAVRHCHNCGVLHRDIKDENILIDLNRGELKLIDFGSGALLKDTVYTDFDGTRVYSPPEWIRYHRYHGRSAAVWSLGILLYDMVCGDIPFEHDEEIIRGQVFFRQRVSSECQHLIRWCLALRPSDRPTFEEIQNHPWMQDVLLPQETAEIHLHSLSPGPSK

Experiments:
Assay in all cases: Thermal shift assay
Assay type in all cases: binding
CSNK2A1 = biological target: T1, CSNK2A1 (Homo sapiens, UniProt P68400); conditions: read-out: ΔTm CSNK2A1
T1 construct: purchased in-house thermal shift (DSF) kinase panel (SGC Frankfurt); Promega NanoBRET for AURKA/B/C

MAPK9 = biological target: T2, MAPK9 (Homo sapiens, UniProt P45984); conditions: read-out: ΔTm MAPK9
T2 construct: purchased in-house thermal shift (DSF) kinase panel (SGC Frankfurt); Promega NanoBRET for AURKA/B/C

CSNK1D = biological target: T3, CSNK1D (Homo sapiens, UniProt P48730); conditions: compound 10 µM; n = 3
T3 construct: purchased in-house thermal shift (DSF) kinase panel (SGC Frankfurt); Promega NanoBRET for AURKA/B/C
T3 sequence (P48730 1-294): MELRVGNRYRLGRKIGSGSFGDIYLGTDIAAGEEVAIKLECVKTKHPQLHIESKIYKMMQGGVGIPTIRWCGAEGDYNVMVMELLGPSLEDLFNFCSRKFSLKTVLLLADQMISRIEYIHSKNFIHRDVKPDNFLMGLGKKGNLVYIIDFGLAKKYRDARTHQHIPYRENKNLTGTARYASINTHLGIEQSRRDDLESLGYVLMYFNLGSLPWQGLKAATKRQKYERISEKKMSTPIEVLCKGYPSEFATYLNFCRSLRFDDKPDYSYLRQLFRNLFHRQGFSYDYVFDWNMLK

MAPK8 = biological target: T4, MAPK8 (Homo sapiens, UniProt P45983); conditions: read-out: ΔTm MAPK8
T4 construct: purchased in-house thermal shift (DSF) kinase panel (SGC Frankfurt); Promega NanoBRET for AURKA/B/C

BRAF = biological target: T5, BRAF (Homo sapiens, UniProt P15056); conditions: read-out: ΔTm BRAF
T5 construct: purchased in-house thermal shift (DSF) kinase panel (SGC Frankfurt); Promega NanoBRET for AURKA/B/C

GSG2 = biological target: T6, GSG2 (Homo sapiens, UniProt Q8TF76); conditions: compound 10 µM; n = 3
T6 construct: purchased in-house thermal shift (DSF) kinase panel (SGC Frankfurt); Promega NanoBRET for AURKA/B/C
T6 sequence (Q8TF76 465-798): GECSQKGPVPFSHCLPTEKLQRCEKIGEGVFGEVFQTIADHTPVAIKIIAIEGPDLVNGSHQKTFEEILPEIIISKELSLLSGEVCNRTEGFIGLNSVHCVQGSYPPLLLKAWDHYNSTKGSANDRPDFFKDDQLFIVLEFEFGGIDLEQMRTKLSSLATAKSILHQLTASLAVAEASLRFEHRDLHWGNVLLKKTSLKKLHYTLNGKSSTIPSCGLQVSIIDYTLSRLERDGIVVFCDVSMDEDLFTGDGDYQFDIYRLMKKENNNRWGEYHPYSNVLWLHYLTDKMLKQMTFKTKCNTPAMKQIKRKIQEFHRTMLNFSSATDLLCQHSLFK

ULK3 = biological target: T7, ULK3 (Homo sapiens, UniProt Q6PHR2); conditions: read-out: ΔTm ULK3
T7 construct: purchased in-house thermal shift (DSF) kinase panel (SGC Frankfurt); Promega NanoBRET for AURKA/B/C
T7 sequence (Q6PHR2 1-277): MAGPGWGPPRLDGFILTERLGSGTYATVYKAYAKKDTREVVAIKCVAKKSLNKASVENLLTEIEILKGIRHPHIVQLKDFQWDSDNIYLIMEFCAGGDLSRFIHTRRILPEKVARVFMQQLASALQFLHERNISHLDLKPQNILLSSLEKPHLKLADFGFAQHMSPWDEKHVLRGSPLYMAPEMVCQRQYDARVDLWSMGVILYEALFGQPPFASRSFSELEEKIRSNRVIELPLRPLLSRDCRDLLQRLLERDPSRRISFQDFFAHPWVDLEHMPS

STK26 = biological target: T8, STK26 (Homo sapiens, UniProt Q9P289); conditions: read-out: ΔTm STK26
T8 construct: purchased in-house thermal shift (DSF) kinase panel (SGC Frankfurt); Promega NanoBRET for AURKA/B/C

PIM1 = biological target: T9, PIM1 (Homo sapiens, UniProt P11309); conditions: read-out: ΔTm PIM1
T9 construct: purchased in-house thermal shift (DSF) kinase panel (SGC Frankfurt); Promega NanoBRET for AURKA/B/C

Which results are given for CN[C@@H]1C[C@H]2O[C@@](C)([C@@H]1OC)n1c3ccccc3c3c4c(c5c6ccccc6n2c5c31)C(=O)NC4 [Staurosporine, reference compound]?
ΔTm at 10 µM (CSNK2A1): 2.3 °C; ΔTm at 10 µM (MAPK9): 3.3 °C; ΔTm at 10 µM (CSNK1D): 1.3 °C; ΔTm at 10 µM (MAPK8): 6.6 °C; ΔTm at 10 µM (BRAF): 0.4 °C; ΔTm at 10 µM (GSG2): 8.4 °C; ΔTm at 10 µM (ULK3): 18.5 °C; ΔTm at 10 µM (STK26): 6.9 °C; ΔTm at 10 µM (PIM1): 11.4 °C
